Test results published in patent publication US9145414B2, “1,2,4-triazine-6-carboxamide derivative” (TAIHO PHARMACEUTICAL CO., LTD., priority 2011, dated 2015).

Molecular target: human Syk protein (Homo sapiens (Human), UniProt P43405)
Assay: Syk kinase inhibition test
Type: biochemical
Settings: Table 95; read-out: SYK inhibitory activity IC50
Protocol: Finally, phosphorylated peptides and non-phosphorylated peptides were separated therebetween using LabChip™ 3000 system (Caliper Life Sciences, Inc., excitation wavelength: 488 nm, detection wavelength: 530 nm). Their respective amounts were measured, and the rate of phosphorylation reaction was then determined from the ratio between the amounts. The concentration at which the compound can inhibit 50% phosphorylation reaction is defined as an IC50 value (μM).
Also, known 1,2,4-triazine-6-carboxamide derivatives A, B, and C (WO2000/075113 (A: compound No. 121 and B: compound No. 154) and WO2000/076980 (C: compound No. 39)) were synthesized as control compounds. Their IC50 values (μM) were calculated in the same way as above and then compared with that of the compound of the present invention.

| IC50 | Structure (SMILES) |
| --- | --- |
| 0.9 nM | [2H]C([2H])([2H])C([2H])([2H])n1ccc2c(Nc3nc(N[C@@H]4CCCC[C@@H]4N)nnc3C(N)=O)cccc21 [Example 9, 3-((1R,2S)-2-aminocyclohexylamino)-5-(1-(ethyl-d5)-1H-indol-4-ylamino)-1,2,4-triazine-6-carboxamide] |
| 0.21 nM | CCn1ccc2c(Nc3nc(N[C@@H]4CCCC[C@@H]4N)nnc3C(N)=O)cccc21 [Example 17, 3-((1R,2S)-2-aminocyclohexylamino)-5-(1-ethyl-1H-indol-4-ylamino)-1,2,4-triazine-6-carboxamide] |
